Literature values, collected in paper PMC4508061, “Selectivity Profiling and Biological Activity of Novel β-Carbolines as Potent and Selective DYRK1 Kinase Inhibitors” (PLoS ONE, 2015).

Sequences of proteins named here, by UniProt entry; tags and fusion partners are left off.
UniProt P49760, whole entry: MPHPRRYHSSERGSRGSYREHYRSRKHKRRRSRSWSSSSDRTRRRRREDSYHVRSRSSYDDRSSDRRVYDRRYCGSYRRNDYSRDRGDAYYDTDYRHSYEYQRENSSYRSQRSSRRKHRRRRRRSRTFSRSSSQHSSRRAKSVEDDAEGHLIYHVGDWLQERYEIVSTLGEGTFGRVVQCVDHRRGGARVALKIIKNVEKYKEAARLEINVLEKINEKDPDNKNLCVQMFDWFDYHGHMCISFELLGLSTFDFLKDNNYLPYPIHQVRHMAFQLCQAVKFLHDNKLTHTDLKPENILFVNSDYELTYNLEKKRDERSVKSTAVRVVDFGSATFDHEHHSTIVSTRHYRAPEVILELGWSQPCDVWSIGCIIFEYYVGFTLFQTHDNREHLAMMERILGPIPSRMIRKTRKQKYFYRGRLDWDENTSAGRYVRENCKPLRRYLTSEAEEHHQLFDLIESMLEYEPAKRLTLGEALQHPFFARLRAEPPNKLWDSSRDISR

Target: T1, CLK2 (Homo sapiens, UniProt P49760)
T1 construct: purchased ProQinase (Freiburg, Germany)
Settings: 10 μM; cited from earlier work

## O=C1NC(Nc2ccccc2)=N/C1=C\c1ccc2c(c1)OCO2 [L41]
  Residual activity (% of control): 6 % of control
